Measurements taken from patent EP0998946A1, “Non-porphyrin compound for use as a diagnosticum and/or pharmaceutical” (K.U. LEUVEN RESEARCH & DEVELOPMENT, priority 1998, dated 2000).

How the values were obtained:
[1] = system: rats; assay: Acute lethal toxicity (LD50) in rats
[2] = system: mice; assay: Acute lethal toxicity (LD50) in mice

## N,N'-Bis(diethylenetriamino penta-acetato)-4,4'-methylene bis(3-hydroxy-2-naphthalene carboxylic hydrazide), Gd-complex, sodium salt [ECIII-60]
[1]
  acute lethal toxicity (LD50): about 3.8 mmol/kg
[2]; interpolated over the mice and rats dose groups, printed in the last (mice) line
  Interpolated LD50 (mmol/kg): (2.5 +5.0)/2 =3.8 mmol/kg0
[2]; mice
  acute lethal toxicity (LD50): about 3.8 mmol/kg
